Results reported in ChEMBL document CHEMBL3508140 (2016).

Tests used:
[1] = Intermediate phase half-life of epirubicin following intravenous epirubicin at 50 mg.m-2 dose in cancer patients; type: ADME, organism-based, Plasma; details: human, in vivo
[2] = Terminal half-life of epirubicin following intravenous epirubicin at 150 mg.m-2 dose in advanced cancer patients; type: ADME, organism-based; details: human, plasma
[3] = Intermediate phase half-life of epirubicin following intravenous epirubicin at 25-35 mg.m-2 dose in cancer patients; type: ADME, organism-based, Plasma; details: human, in vivo
[4] = Intermediate phase half-life of epirubicin following intravenous epirubicin at 60 mg.m-2 dose in cancer patients; type: ADME, organism-based, Plasma; details: human, in vivo
[5] = Half-life of terminal elimination phase of epirubicin following intravenous epirubicin at 70 mg.m-2 dose in cancer patients; type: ADME, organism-based; details: human, plasma
[6] = Mean terminal half-life of epirubicin following intravenous epirubicin at 60 mg.m-2 dose in cancer patients; type: ADME, organism-based; details: human, plasma
[7] = Initial phase half-life of epirubicin following intravenous epirubicin at 40-60 mg.m-2 dose in cancer patients; type: ADME, organism-based, Plasma; details: human, in vivo

Work on `COc1cccc2c1C(=O)c1c(O)c3c(c(O)c1C2=O)C[C@@](O)(C(=O)CO)C[C@@H]3O[C@H]1C[C@H](N)[C@@H](O)[C@H](C)O1.Cl` [EPIRUBICIN HYDROCHLORIDE] yielded a t1/2 [1] of 1.12 h, a half-life [2] of 30 h and a t1/2 [3] of 1.04 h. For the same compound, the t1/2 [4] was 1.08 h, the half-life [5] was 30.1 h and the half-life [6] was 31 h. For the same compound, the t1/2 [7] was 1.8 min.
